The experiment deals with patients evaluated for sleep disturbances after oral surgery. Description: Study A: single dose after oral surgery, ibuprofen, diphenhydramine and combination vs placebo. Conditions: 5-point scale 0=did not fall asleep to 4=very easy, ibuprofen 400 mg, diphenhydramine HCl 50 mg.

Structures are written as SMILES.

Consider `CN(C)CCOC(c1ccccc1)c1ccccc1` [DPH, 2-(diphenylmethoxy)-N,N-dimethylethylamine], for which the “Ease of Falling Asleep” value is 1.06 A.

(Values after patent US8883849B2, “Treatment of sleep disturbances” (Wyeth LLC, priority 2001, dated 2014).)
